Measurements taken from ChEMBL document CHEMBL1811821, “Cystic fibrosis: a new target for 4-Imidazo[2,1-b]thiazole-1,4-dihydropyridines” (J Med Chem, 2011).

Assay: Binding affinity to CFTR F508 deletion mutant expressed in forskolin-stimulated FRT cells assessed as increase in iodine influx measured as YFP quenching rate after 24 hrs by fluorescence assay
Type: cell-based
Method in brief: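 ΔF508-CFTR and halide-sensitive YFP coexpressed in FRT cells, held at 27 °C for 24 h for rescue, then stimulated 30–40 min with 20 μM forskolin with or without compound at 0.2, 2 and 20 μM. Fluorescence read before and after I– addition (100 mM final). Normalized decay fitted exponentially for maximal quenching rate; dose–response fitted with Hill equation for potency and maximal effect. Three independent determinations.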

## O=c1c(-c2ccc(O)cc2)coc2cc(O)cc(O)c12 [GENISTEIN]
  Kd: 9.4 µM
